Measurements taken from US20230000842A1, “METHODS OF TREATING CARTILAGE DISORDERS THROUGH INHIBITION OF CLK AND DYRK” (SAMUMED, LLC, priority 2019, published 2023).

The chains behind the UniProt entries cited, without tags or fusion partners.
UniProt P49760, whole entry: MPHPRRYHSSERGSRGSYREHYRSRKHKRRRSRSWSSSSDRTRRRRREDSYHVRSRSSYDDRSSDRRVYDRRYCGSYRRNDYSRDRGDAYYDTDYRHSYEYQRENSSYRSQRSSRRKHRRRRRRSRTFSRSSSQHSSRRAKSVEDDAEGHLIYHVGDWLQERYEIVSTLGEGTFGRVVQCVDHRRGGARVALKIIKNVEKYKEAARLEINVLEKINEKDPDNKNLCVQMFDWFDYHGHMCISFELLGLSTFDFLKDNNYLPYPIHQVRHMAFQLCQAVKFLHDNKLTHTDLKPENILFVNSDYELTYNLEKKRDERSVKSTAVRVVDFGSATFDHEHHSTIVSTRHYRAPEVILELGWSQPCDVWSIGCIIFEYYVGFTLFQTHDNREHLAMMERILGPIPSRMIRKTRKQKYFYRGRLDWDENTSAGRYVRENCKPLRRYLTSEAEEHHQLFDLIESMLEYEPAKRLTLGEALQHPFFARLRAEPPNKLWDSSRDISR

Biological target: CLK2 kinase (Homo sapiens, UniProt P49760)
Experiment: CLK2 kinase activity assay (Z-lyte FRET);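 further: FRET read-out as coumarin to fluorescein emission ratio, unphosphorylated peptide as 0% and phosphorylated peptide as 100% controls, duplicate reactions, non-linear regression fit of dose-response curves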
Format: biochemical
Details: Z-lyte Ser/Thr 6 peptide, 60 μM ATP, 1 h at room temperature

## CN1CCN(c2cc(C(=O)Nc3cc4cc(-c5cnn(C)c5)ccc4cn3)ccn2)CC1 [compound 545]
  EC50: 1 nM
